Experimental data reported in PMC9578043 (Journal of medicinal chemistry, 2021).

Target: unliganded TTR tetramers isolated from human plasma (Homo sapiens, UniProt P02766)

| SMILES | TTR activity (in words) | loss in TTR FP potency relative to 14 [fold] |
| --- | --- | --- |
| Cc1n[nH]c(C)c1N1CC2(CN(c3cc(C(=O)O)ccc3F)C2)C1 [compound 44, 3-(6-(3,5-Dimethyl-1H-pyrazol-4-yl)-2,6-diazaspiro[3.3]heptan-2-yl)-4-fluorobenzoic Acid] | inactive | – |
| Cc1n[nH]c(C)c1N1CCC2(CCN(c3cc(C(=O)O)ccc3F)C2)C1 (racemic) [(±)-38, (±)-3-(7-(3,5-dimethyl-1H-pyrazol-4-yl)-2,7-diazaspiro[4.4]nonan-2-yl)-4-fluorobenzoic acid] | – | 5 |
| O=C(O)c1ccc(F)c(N2CCN(c3nn[nH]n3)CC2)c1 [compound 48, 3-(4-(2H-tetrazol-5-yl)piperazin-1-yl)-4-fluorobenzoic acid] | complete loss | – |
